The target in one experiment is ABL1 (Homo sapiens, UniProt P00519). As to the kind of experiment: biochemical.
A further experiment deals with PDGFRα (Homo sapiens, UniProt P16234). As to the kind of experiment: Ba/F3 cell proliferation (WST-1), PDGFRα, PDGF-BB-stimulated. In kind it is cell-based.
The target of a further experiment is BCR-ABL (Homo sapiens, UniProt P00519+P11274). As to the kind of experiment: Ba/F3 cell proliferation (WST-1), BCR-ABL (ABL1 in Table 1). Conditions: read-out: Cell-based assay IC50, ABL1, Ba/F3 cells expressing BCR-ABL. For orientation: Tetrazolium dyes change colour on reduction, which living cells bring about.

Protein sequences, listed by entry. Tags and fused reporters are not part of them. Lines headed by an entry give the natural chain unless they say otherwise; changes in a name come on top. Residues count along the entry.
UniProt P00519, whole entry: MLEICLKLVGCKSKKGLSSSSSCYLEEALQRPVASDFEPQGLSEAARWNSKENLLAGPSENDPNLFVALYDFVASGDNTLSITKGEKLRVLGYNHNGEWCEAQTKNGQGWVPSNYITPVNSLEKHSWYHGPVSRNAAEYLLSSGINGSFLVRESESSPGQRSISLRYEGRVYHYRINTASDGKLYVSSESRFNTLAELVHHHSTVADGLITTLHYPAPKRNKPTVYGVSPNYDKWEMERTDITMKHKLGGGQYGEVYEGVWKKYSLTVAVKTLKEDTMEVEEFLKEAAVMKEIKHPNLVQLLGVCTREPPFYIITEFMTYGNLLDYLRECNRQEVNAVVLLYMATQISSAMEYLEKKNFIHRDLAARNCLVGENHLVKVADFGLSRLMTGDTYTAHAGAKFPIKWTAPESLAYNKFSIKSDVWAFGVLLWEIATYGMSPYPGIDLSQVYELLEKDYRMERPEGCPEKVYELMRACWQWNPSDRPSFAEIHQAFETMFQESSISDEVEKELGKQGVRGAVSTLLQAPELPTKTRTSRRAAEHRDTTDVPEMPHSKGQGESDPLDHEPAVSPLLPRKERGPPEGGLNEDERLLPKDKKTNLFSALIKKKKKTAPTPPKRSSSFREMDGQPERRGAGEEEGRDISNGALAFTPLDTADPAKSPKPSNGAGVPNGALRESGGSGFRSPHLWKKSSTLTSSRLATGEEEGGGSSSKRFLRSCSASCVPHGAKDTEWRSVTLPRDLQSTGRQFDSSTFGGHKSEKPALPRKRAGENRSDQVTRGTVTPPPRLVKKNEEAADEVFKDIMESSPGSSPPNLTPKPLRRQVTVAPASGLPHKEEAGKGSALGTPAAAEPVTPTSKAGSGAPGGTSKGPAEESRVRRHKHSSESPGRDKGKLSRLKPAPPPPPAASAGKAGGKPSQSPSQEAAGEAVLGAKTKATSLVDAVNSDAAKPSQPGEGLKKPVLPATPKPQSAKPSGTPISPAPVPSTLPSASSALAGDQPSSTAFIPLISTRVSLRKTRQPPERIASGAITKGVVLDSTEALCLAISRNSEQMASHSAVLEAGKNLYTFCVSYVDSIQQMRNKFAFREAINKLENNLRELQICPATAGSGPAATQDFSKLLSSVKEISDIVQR
UniProt P00519, 229-512 limits assumed: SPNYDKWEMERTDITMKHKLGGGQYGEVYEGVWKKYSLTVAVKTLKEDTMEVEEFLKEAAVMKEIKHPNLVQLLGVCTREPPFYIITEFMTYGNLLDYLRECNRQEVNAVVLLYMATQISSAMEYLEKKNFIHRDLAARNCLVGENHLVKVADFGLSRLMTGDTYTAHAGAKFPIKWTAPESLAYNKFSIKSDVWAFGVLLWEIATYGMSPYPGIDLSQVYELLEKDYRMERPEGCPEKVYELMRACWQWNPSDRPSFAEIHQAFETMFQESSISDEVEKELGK
UniProt P16234, 24-1089: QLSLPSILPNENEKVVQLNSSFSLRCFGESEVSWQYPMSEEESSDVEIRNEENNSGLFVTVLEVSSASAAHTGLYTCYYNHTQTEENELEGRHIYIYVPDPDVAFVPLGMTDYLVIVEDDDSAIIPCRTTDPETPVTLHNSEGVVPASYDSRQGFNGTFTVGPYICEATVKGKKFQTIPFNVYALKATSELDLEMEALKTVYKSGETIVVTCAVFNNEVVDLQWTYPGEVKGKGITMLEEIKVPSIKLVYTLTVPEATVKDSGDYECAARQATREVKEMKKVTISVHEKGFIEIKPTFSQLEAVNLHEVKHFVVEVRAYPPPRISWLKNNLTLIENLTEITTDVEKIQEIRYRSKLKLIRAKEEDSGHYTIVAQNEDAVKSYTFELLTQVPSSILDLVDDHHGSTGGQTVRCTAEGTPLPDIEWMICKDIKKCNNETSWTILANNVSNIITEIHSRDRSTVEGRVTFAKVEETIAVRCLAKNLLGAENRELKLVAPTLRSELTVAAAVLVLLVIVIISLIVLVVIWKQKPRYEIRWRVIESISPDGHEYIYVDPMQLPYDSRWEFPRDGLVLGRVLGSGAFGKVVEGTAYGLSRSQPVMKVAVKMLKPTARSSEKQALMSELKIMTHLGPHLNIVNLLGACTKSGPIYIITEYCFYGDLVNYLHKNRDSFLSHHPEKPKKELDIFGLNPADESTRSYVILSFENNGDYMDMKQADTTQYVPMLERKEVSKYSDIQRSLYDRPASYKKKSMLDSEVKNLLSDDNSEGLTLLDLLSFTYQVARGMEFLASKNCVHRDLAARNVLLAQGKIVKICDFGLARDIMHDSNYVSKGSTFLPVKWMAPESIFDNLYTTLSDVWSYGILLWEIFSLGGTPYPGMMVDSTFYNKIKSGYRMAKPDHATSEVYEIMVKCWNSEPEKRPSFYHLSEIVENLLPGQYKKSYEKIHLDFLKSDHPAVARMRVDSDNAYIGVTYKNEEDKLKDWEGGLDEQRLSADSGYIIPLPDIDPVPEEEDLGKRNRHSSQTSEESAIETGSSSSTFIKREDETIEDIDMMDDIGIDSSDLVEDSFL
UniProt P11274: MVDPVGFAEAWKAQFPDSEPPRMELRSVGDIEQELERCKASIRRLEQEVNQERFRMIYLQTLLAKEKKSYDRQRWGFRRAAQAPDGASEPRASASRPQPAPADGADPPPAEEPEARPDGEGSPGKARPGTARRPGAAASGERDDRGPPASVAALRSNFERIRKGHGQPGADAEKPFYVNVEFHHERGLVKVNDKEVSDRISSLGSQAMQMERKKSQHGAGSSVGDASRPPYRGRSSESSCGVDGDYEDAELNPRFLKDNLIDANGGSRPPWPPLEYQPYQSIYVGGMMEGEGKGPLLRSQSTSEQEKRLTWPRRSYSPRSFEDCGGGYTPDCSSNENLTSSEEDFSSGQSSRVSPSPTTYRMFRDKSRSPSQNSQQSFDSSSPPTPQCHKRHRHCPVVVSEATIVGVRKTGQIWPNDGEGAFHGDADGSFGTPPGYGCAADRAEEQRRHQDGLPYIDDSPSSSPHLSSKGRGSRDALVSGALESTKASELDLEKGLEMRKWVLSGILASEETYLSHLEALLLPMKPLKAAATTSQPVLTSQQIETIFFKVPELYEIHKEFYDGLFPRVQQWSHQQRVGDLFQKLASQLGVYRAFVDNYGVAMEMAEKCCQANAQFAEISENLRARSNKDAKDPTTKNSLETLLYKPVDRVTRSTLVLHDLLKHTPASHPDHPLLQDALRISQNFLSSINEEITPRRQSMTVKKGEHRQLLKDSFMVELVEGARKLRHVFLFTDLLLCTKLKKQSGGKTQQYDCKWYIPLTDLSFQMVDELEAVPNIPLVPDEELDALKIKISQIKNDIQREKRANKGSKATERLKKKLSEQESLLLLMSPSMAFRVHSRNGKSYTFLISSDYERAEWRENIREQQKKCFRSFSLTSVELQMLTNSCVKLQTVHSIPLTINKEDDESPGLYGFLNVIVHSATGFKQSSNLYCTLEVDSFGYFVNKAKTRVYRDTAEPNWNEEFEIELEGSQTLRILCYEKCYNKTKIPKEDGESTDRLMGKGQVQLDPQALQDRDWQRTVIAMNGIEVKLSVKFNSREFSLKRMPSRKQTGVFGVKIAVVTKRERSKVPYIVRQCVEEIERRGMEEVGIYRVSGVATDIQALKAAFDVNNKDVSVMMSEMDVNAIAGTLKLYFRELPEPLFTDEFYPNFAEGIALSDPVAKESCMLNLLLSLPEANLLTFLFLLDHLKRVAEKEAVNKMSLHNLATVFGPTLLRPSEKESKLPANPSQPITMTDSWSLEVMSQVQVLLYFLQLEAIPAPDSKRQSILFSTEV

One compound from publication PMC2746281 (2009) can be followed below.

Take `CS(=O)(=O)O.CS(=O)(=O)O.Cc1ccc(NC(=O)c2ccc(CN3CCN(C)CC3)cc2)cc1Nc1nc(-c2cccnc2)cs1` [masitinib, 4-(4-methylpiperazin-1-ylmethyl)-N-[4-methyl-3-(4-pyridin-3ylthiazol-2-ylamino)phenyl]benzamide-mesylate methane sulfonic acid salt]: the IC50 against ABL1 was determined as 1200 ± 340 nM; on PDGFRα it was 300 ± 5 nM; at BCR-ABL it was 2800 ± 800 nM.
